From patent publication US20110275673A1, “INHIBITORS OF SPHINGOSINE KINASE 1” (priority 2008, published 2011)

Chains of the proteins cited; added tags and fusions are not shown.
UniProt Q9NYA1, whole entry: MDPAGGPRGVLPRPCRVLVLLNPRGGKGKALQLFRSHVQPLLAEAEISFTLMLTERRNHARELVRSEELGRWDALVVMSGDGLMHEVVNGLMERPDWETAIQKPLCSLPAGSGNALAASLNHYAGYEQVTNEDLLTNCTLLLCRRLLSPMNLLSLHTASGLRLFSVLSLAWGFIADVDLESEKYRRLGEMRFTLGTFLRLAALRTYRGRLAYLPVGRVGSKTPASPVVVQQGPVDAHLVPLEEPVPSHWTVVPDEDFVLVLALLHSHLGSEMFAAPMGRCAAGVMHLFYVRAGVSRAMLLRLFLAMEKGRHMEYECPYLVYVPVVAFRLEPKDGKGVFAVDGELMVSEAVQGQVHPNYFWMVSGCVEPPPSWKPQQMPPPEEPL

Biological target: T1, SPHK-1 (Homo sapiens, UniProt Q9NYA1)
T1 construct: purchased BPS Bioscience
Assay: Reporter Assay: sphingosine kinase conversion of fluorescein-labeled sphingosine, read on Lab Chip 3000
Assay type: biochemical
Conditions: 2 μM Fl-sphingosine, 25 μM ATP, 300 ng/ml SK1, 1 hour at room temperature; from percent conversion of substrate to product; read-out: SPHK-1 IC50 (n =)
Method: Sphingosine kinase is a 49 kDa enzyme that catalyzes the formation of sphingosine-1-phosphate (S-1-P) from sphingosine.
Fluorescein labeled sphingosine was obtained from Echelon Biosciences (S-100F). Buffer reagents (1 M Hepes, 10 triton x-100, 100% glycerol, dithiothreitol 1 M MgCl2, ATP, 500 mM EDTA and DMSO) were purchased from Sigma. Coating reagent (CR-3), was obtained from Caliper Life Sciences.
0.05% Triton X-100, 2.5% glycerol, 0.1% CR-3, and 0,6% DMSO. Termination butler included 100 mM Hepes (pH 7.5), 40 mM EDTA, 0.05% Triton X-100, 2.5% glycerol, 0.3% CR-3, and 0.6% DMSO.
All assay components were made in reaction buffer. […] The assaylvas allowed to incubate at room temperature sealed and protected from light for 1 hour.
After 1 hour, 10 μl of termination buffer was added to terminate, the reaction, and the plate was read on a Lab Chip 3000. The plate was read for one cycle. The Lab Chip separated substrate and product based on charge.
Results were calculated based on percent conversion of substrate to product using the following formula: […]
Percent inhibition and IC50's for compounds of the invention were determined using the percent conversion values obtained horn the Lab Chip.

IC50 [µM]	SMILES
3.5	CCCCCCCCc1ccc(CNC(=O)[C@@H](N)CCO)cc1 [Example 57, (S)-2-Amino-4-hydroxy-N-(4-octylbenzyl)butanamide]
3.2	CCCCCCCCc1ccc(NC(=O)[C@@H](N)[C@H](O)CC)cc1 (racemic) [Example 5, (±)-erythro-DL-2-Amino-3-hydroxy-N-(4-octylphenyl) pentanamide]
